Experimental data as given in patent publication US20170216355A1, “Methods and Compositions for Enhancing T Cell Function and Survival” (Augusta University Research Institute, Inc., priority 2016, published 2017).

Chains of the proteins cited; added tags and fusions are not shown.
UniProt P42338, whole entry, species assumed: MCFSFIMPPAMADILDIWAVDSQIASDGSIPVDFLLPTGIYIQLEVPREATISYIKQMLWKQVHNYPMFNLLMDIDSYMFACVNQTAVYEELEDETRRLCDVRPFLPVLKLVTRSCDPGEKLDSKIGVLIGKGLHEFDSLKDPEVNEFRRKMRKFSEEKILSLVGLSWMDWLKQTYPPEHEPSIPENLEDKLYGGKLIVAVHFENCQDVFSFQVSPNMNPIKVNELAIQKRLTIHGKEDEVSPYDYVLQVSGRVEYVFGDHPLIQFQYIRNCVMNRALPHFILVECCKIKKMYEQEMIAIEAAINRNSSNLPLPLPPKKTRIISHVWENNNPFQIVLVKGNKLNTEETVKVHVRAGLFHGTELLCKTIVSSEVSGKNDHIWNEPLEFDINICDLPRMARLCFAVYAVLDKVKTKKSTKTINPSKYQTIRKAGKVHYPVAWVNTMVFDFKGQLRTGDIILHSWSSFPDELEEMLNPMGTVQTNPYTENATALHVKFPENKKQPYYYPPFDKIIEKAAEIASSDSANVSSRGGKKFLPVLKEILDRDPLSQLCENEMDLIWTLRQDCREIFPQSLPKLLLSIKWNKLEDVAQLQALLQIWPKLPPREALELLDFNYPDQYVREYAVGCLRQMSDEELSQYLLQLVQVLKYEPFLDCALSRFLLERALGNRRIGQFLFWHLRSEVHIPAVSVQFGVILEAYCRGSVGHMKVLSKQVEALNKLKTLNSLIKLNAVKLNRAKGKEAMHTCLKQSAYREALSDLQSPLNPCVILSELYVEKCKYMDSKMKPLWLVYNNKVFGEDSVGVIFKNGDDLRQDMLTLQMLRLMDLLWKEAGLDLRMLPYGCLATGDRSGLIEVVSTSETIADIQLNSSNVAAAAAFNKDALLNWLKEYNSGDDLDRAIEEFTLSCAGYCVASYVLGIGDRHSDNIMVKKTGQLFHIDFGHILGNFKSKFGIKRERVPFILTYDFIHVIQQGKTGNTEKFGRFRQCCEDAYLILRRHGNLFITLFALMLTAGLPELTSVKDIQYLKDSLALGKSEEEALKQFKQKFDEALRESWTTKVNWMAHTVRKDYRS

Legend:
[1] = test system: CD8 T cells from pMel-1 mice; test: Proliferation assay (VCT dye dilution) and fold expansion of CD8 T cells; assay type: cell-based, mouse; conditions: after 3 days of stimulation
Method: CD8 T cells from pMel-1 mice were activated in vitro as previously described^5. […] Cells were cultured in RPMI 1640 (Lonza) supplemented with 10% FBS, penicillin (100 U/mL), streptomycin ([…]), 0.1% β-mercaptoethanol (Life Technologies, Invitrogen) and IL-2 (100 U/ml) (Peprotech) at 37° C. with 5% CO2. pMel-1 cells were cultured with or without the different PI3K inhibitors. The concentration of the inhibitors was maintained throughout the culture by changing the media every 48-72 hours. […] The proliferation of CD8 T cells was assessed via VCT dye dilution (day 3) using an LSRII SORP with HTS Flow Cytometer (BD Biosciences). The data were analyzed using FlowJo 10 (Tree Star). […] Cells were stained with the following surface marker antibodies (BD Biosciences): APC-Cy7 labeled anti-CD8, FITC labeled anti-Vβ13, PE labeled anti-CD62L, APC labeled anti-CD44, PE-CF594 labeled anti-CD127, APC labeled anti-KLRG-1 in addition to the viability stain 7AAD. All the analyses were performed on viable (7AAD−), Vβ13+CD8+ T cells.

p110β = p110β (Homo sapiens, UniProt P42338); conditions: cited from earlier work

SMILES | proliferation of CD8 T cells (VCT dilution) [1] | proliferation of CD8 T cells (VCT dilution) ([1]; listed as GDC) | IC50 (p110β)
CS(=O)(=O)N1CCN(Cc2cc3nc(-c4cccc5[nH]ncc45)nc(N4CCOCC4)c3s2)CC1 [GDC-0941] | inhibited in a dose-dependent manner | slightly inhibited | –
Cc1cc(C(C)Nc2ccccc2)c2nc(N3CCOCC3)cc(=O)n2c1 (stereo not drawn) [TGX-221] | – | – | 5 nM
